{"source": "paper PMC3996367", "about": "“Profiling of drugs and environmental chemicals for functional impairment of neural crest migration in a novel stem cell-based test battery” (Archives of Toxicology, 2014)", "key": {"[1]": {"system": "HEK293 cells", "conditions": "human"}, "[2]": {"system": "mESC-derived neural stem cells (mESCn)", "conditions": "mouse"}, "[3]": {"system": "hESC-derived neural crest cells (NCC)", "conditions": "human"}}, "data": [{"smiles": "CCCCc1oc2ccccc2c1C(=O)c1cc(I)c(OCCN(CC)CC)c(I)c1", "note": "[Amiodarone]", "values": [{"measurement": "Highest non-cytotoxic conc. in HEK293", "setting": "[1]", "value": 10.0, "unit": "µM"}, {"measurement": "Highest non-cytotoxic conc. in mESCn", "setting": "[2]", "value": 460.0, "unit": "nM"}, {"measurement": "Concentration for hit finding in NCC (highest non-cytotoxic concentration in the UKN2 test system)", "setting": "[3]", "value": 10, "unit": "µM"}]}]}
